What was measured:
[1] = molecular target: T1, Mu-type opioid receptor (Mus musculus, UniProt P42866); test: Binding affinity against opioid receptor mu using [3H]etorphine as a radioligand
[2] = test system: Mus musculus; test: In vivo analgesic activity for chemical irritation modality using HCl writhing test in female CF-1 mice administered subcutaneously
[3] = molecular target: Kappa-type opioid receptor (Mus musculus, UniProt P33534); test: Binding affinity against opioid receptor kappa using [3H]U-69,593 as a radioligand
[4] = test system: Mus musculus; test: In vivo analgesic activity for heat stimulus modality using tail flick test in female CF-1 mice administered subcutaneously
[5] = test system: Mus musculus; test: In vivo analgesic activity for pressure stimulus modality using tail pinch test in female CF-1 mice administered subcutaneously
[6] = molecular target: T1, Mu-type opioid receptor; test: Binding affinity against Opioid receptor mu 1 using [3H]etorphine as a radioligand

Sequences of proteins named here, by UniProt entry; tags and fusion partners are left off. A change or cut given only in a name is not applied to a line headed by its entry.
UniProt P42866, whole entry, looked up: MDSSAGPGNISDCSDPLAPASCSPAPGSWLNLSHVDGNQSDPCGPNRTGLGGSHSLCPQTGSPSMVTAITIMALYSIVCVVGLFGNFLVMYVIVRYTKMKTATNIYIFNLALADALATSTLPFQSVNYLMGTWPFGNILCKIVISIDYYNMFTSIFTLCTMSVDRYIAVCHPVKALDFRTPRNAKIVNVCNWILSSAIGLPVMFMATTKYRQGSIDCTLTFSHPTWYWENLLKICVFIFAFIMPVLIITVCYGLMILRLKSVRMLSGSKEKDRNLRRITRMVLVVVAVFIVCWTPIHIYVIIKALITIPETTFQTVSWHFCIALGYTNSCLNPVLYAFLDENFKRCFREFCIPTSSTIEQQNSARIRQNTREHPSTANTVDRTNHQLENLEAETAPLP
UniProt P33534: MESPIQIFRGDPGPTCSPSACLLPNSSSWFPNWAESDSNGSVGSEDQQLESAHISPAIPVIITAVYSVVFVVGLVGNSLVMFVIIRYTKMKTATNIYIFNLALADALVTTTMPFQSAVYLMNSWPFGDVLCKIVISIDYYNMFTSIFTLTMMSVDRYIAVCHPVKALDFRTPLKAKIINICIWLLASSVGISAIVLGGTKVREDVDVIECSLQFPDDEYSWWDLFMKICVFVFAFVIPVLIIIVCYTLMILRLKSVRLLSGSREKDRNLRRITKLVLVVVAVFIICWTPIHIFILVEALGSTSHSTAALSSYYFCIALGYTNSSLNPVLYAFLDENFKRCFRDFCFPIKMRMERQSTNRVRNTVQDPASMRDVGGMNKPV

| SMILES | Ki [1] | ED50 [2] | IC50 [3] | ED50 [4] | ED50 [5] | Ki [6] |
| --- | --- | --- | --- | --- | --- | --- |
| CN(C)[C@@H]1CCc2ccccc2[C@H]1N(C)C(=O)Cc1ccc(Cl)c(Cl)c1 | > 1000 nM | 25 mg/kg | 11.7 nM | 28 mg/kg | 28 mg/kg |  |
| CN(C(=O)c1ccc(Cl)c(Cl)c1)[C@@H]1Cc2ccccc2C[C@H]1N1CCCC1 | 374 nM | > 100 mg/kg | 29 nM | > 100 mg/kg | > 100 mg/kg |  |
| CN(C(=O)Cc1ccc(Cl)c(Cl)c1)[C@@H]1c2ccccc2CC[C@H]1N1CCCC1 | > 1000 nM | 0.8 mg/kg | 7.3 nM | 2 mg/kg | 0.5 mg/kg |  |
| CN(C(=O)Cc1ccc(Cl)c(Cl)c1)C1CCCCC1N1CCCC1 (centres undefined) |  | 2.5 mg/kg |  | 2.5 mg/kg | 2.5 mg/kg | > 1000 nM |
| CN(C(=O)Cc1ccc(Cl)c(Cl)c1)[C@@H]1Cc2ccccc2C[C@H]1N1CCCC1.Cl |  | 1.1 mg/kg |  | 2 mg/kg | 2 mg/kg |  |
| CN(C(=O)Cc1ccc(Cl)c(Cl)c1)[C@@H]1Cc2ccccc2C[C@H]1N1CCCC1 | > 1000 nM |  | 5.2 nM |  |  |  |
| CN(C(=O)Cc1ccc(Cl)c(Cl)c1)[C@@H]1Cc2cc3ccccc3cc2C[C@H]1N1CCCC1 | > 1000 nM | > 100 mg/kg | 145 nM | > 100 mg/kg | > 100 mg/kg |  |

Source: ChEMBL document CHEMBL1125895, “Naphtho and benzo analogues of the kappa opioid agonist trans-(+/-)-3,4-dichloro-N-methyl-N-[2-(1-pyrrolidinyl)cyclohexyl] benzeneacetamide” (1991)
